Source: article PMC11403483 (The Journal of Biological Chemistry, 2024)

Target: recombinant human galectin 9 (human, UniProt O00182-2)
Test: SPR

Kd: 10.5 nM
koff: 0.0015 s⁻¹
kon: 143000 M⁻¹ s⁻¹
B1: recombinant human CD44 (receptor, UniProt P16070 21-220, looked up)
chain: QIDLNITCRFAGVFHVEKNGRYSISRTEAADLCKAFNSTLPTMAQMEKALSIGFETCRYGFIEGHVVIPRIHPNSICAANNTGVYILTSNTSQYDTYCFNASAPPEEDCTSVTDLPNAFDGPITITIVNRDGTRYVQKGEYRTNPEDIYPSNPTDDDVSSGSSSERSSTSGGYIFYTFSTVHPIPDEDSPWITDSTDRIP
